Measured values published in US20170196868A1, “METHODS AND COMPOSITIONS FOR TREATMENT OF HER-POSITIVE CANCERS” (UNIVERSITY OF SOUTH CAROLINA, priority 2014, published 2017).

Key:
Assay type in all cases: cell-based
[1] = system: ER-HER2+ breast cancer cell line HCC-1419; experiment: MTT assay for relative cell number, drug combination analysis (CompuSyn CI); conditions: single agent
Description: (§1) FIG. 1 presents an analysis of the nature of the interaction between CDK8/19 inhibitor Senexin B (a.k.a. SNX2-1-165) developed and owned by Senex Biotechnology, Inc.) and a HER2-specific monoclonal antibody (a biosimilar of trastuzumab from Biocad, Strelna, Russia) in BT474, a ER+HER2+ breast cancer cell line. In these experiments, 2000 cells/well were plated in each well of 96 well plates. After 24 hours, cells were treated with the indicated concentrations of Senexin B (SNXB) or a trastuzumab biosimilar (HER), alone or at a constant fixed ratio of 100 nM SNXB:1 μg/ml HER. Treatment was repeated after 3 days, and the MTT assay for relative cell number was performed after the total of 7 days of treatment. The Combination Index (CI) values were calculated using CompuSyn® (www.combosyn.com), a web tool based on the principles described in Chou (2006). […]
(§2) The same analysis as above was conducted in ER-HER2+ breast cancer cell line HCC-1419 which, despite high levels of HER2, is intrinsically resistant to trastuzumab but sensitive to lapatinib; this pattern of resistance has been associated with activated phosphoinositide 3-kinase/AKT signaling (O'Brien et al., 2010). We also analyzed ER-HER2+ breast cancer cell line JIMT-1, which is intrinsically resistant to both trastuzumab and lapatinib. […]

[2] = system: ER-HER2+ breast cancer cell line JIMT-1; experiment: as above; conditions: single agent
Description: as §1, §2

[3] = system: lapatinib-selected SKBR3-LT cells; experiment: Sensitivity of lapatinib-selected cells versus parental SKBR3, 7-day treatment; conditions: single agent, 7 days
Description: To determine if CDK8/19 inhibition has an effect on acquired resistance to HER2-targeted drugs, we selected SKBR3 ER-HER2+ breast cancer cells for lapatinib resistance, through 4-month continuous exposure to 250 nM lapatinib. The parental SKBR3 cells and the lapatinib-selected SKBR3-LT cells were then tested for resistance to HER2-targeted drugs, Senexin B, and their combinations, by plating at 1,500 cells per well in 96-well plates and then treating with Senexin B (0-10 μM), lapatinib (0-1000 nM), trastuzumab biosimilar (0-100 μg/ml) or combinations of Senexin B and lapatinib or Senexin B and trastuzumab biosimilar at a fixed ratio for 7 days.

Substance: trastuzumab biosimilar: HER2-specific monoclonal antibody (a biosimilar of trastuzumab from Biocad, Strelna, Russia)
- response of cells to drug alone [1]: resistant
- response of cells to drug alone [2]: resistant
- sensitivity of SKBR3-LT relative to SKBR3 [3]: less sensitive
